Literature values, collected in patent US20180136238A1 (priority 2016, published 2018).

Settings: reference LD50 value

Row | Substance | LD50 value (unit inferred) | LD50 dose (species and route not given)
1 | arsenocholine | 6500 mg/kg | –
2 | arsenous acid | – | 20 mg/kg
